Where two headings read alike, the source gives them in different places. This is a selection: effects in other tests are not listed, and their absence says nothing.
Columns and labels:
[1] = single-electron reduction midpoint potential, pH 7.0; cited from earlier work
MH22a cells [2] = conditions: read-out: MH22a cL50; previous data; cited from earlier work
HCT-116 cells = conditions: read-out: HCT-116 GI50; previous data; cited from earlier work
[3] = tested on: TrxRs (human TrxR2 and rat TrxR1); test: Stimulation of NADPH:oxidase activity of TrxRs ('subversive substrate' action); conditions: 100 µM compound
MH22a cells [4] = test: Modulation of cytotoxicity in MH22a cells by antioxidants, dicoumarol and cytochrome P-450 inhibitors; conditions: compound 10.0 µM
Rat TrxR1 = Rat TrxR1 (Rattus norvegicus, UniProt O89049); test: Reversible inhibition and inactivation of rat TrxR1; conditions: read-out: Rat TrxR1 IC50; 50% decrease of initial rate (t = 0, reversible inhibition); pH 7.0, 25 °C; 200 µM NADPH, 2.0 mM DTNB
HGR = HGR (Homo sapiens, UniProt P00390); test: Reversible inhibition and inactivation of HGR; conditions: read-out: HGR IC50; 50% decrease of initial rate (t = 0, reversible inhibition); pH 7.0, 25 °C; 200 µM NADPH, 1.0 mM GSSG
[5] = tested on: TrxR in the lysates of MH22a and HCT-116 cells; test: TrxR activity in cell lysates; conditions: 10 µM compound, up to 20 min
[6] = tested on: GR in the lysates of MH22a and HCT-116 cells; test: GR activity in cell lysates; conditions: 10 µM compound, t = 0 vs 20 min incubation with NADPH; 37 °C
[7] = molecular target: NAD(P)H:quinone oxidoreductase (NQO1) (Rattus norvegicus, UniProt P05982); conditions: cited from earlier work
[8] = tested on: rat cytosolic enzyme (TrxR1); conditions: cited from earlier work
human TrxR1 = conditions: cited from earlier work
[9] = tested on: human mitochondrial enzyme (TrxR2); conditions: cited from earlier work
[10] = molecular target: human glutathione reductase (HGR) (Homo sapiens, UniProt P00390); conditions: cited from earlier work
TrxR = conditions: 50 µM, 4 h, cited from earlier work
GR = conditions: 50 µM, 4 h, cited from earlier work

Amino acid sequences for entries named in this document (tags omitted). Residues count along the entry.
UniProt O89049, whole entry: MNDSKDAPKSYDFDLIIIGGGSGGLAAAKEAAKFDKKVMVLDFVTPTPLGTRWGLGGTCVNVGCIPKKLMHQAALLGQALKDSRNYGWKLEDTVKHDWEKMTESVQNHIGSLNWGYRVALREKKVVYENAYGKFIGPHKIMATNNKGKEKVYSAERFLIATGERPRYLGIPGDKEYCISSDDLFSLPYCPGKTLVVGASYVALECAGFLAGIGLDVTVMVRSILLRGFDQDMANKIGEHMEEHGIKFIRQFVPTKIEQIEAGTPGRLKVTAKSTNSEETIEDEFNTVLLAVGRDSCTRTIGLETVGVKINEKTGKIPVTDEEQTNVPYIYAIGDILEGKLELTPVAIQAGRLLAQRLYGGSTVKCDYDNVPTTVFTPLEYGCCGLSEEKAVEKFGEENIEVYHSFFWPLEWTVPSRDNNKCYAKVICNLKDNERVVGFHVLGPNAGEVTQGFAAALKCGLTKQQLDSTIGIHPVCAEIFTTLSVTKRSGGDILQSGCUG
UniProt P00390, 44-522 limits assumed: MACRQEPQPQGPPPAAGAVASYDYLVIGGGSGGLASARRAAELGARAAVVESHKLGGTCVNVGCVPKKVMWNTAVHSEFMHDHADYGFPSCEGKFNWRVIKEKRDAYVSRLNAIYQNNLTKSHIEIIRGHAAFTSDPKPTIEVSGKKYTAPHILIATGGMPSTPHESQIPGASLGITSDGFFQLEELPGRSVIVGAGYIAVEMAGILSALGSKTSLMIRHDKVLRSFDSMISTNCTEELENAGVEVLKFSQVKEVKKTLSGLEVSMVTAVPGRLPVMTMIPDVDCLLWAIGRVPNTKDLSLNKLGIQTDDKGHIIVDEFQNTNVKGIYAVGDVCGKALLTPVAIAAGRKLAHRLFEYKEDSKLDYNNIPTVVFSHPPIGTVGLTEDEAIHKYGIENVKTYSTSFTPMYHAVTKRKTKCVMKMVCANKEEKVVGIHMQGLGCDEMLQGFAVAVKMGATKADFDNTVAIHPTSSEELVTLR
UniProt P05982, 2-274 limits assumed: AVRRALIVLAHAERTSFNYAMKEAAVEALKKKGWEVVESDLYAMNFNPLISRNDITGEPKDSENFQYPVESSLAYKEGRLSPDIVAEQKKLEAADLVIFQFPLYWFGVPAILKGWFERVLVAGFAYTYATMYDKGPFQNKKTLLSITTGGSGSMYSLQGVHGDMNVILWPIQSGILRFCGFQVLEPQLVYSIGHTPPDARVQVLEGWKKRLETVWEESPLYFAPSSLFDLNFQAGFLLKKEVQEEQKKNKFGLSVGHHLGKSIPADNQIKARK

SMILES | E^1_7 [1] | IC50 (MH22a cells [2]) | GI50 (HCT-116 cells) | increase of NADPH:oxidase activity of TrxRs [3] | Cell Viability (%) Additions: None (MH22a cells [4]) | IC50 (Rat TrxR1) | IC50 (HGR) | inhibition of TrxR in cell lysates in short-term experiments [5] | time-dependent inhibition of GR in cell lysates [6] | kcat NQO1 [7] | kcat rat cytosolic TrxR1 [8] | kcat human TrxR1 (human TrxR1) | kcat human mitochondrial TrxR2 [9] | kcat HGR [10] | Residual Activity (%) TrxR (TrxR; A549 cells) | Residual Activity (%) TrxR (TrxR; HeLa cells) | Residual Activity (%) GR (GR; A549 cells) | Residual Activity (%) GR (GR; HeLa cells)
Cc1c([N+](=O)[O-])cc([N+](=O)[O-])cc1[N+](=O)[O-] | −0.253 V | 17.4 µM | 40 µM |  |  |  |  |  |  |  |  |  |  |  |  |  |  | 
O=[N+]([O-])c1cccc([N+](=O)[O-])c1 | −0.345 V | 130 µM | 350 µM |  |  |  |  |  |  |  |  |  |  |  |  |  |  | 
CN(c1c([N+](=O)[O-])cc([N+](=O)[O-])cc1[N+](=O)[O-])[N+](=O)[O-] | −0.191 V | 7 µM | 8 µM | 12–14 times | 45.5 ± 4.2% | 10 µM | 14 µM | efficiently inhibited | almost absent | 73 s⁻¹ | 1.8 s⁻¹ | 2.9 s⁻¹ | 0.7 s⁻¹ | ≥ 5 s⁻¹ | 80% | 75% | 100% | 100%
